Measured values published in patent publication US5763597A, “Orally active adenosine kinase inhibitors” (priority 1996, dated 1998).

System: maximal electroshock seizures (hind limb tonic extension) in male SA rats
Assay: Anticonvulsant activity, maximal electroshock (MES) model
Format: in vivo
Conditions: rat, ip; ">5" = HTE inhibited in fewer than 50% of animals at 5 mg/kg screen; ">>" (written >) = no activity, "<" = maximal activity at stated dose

How did the ED50 turn out when `CCOCc1ccc(Nc2ncnc3c2c(-c2ccccc2)cn3[C@@H]2O[C@H](C)[C@@H](O)[C@H]2O)cc1` [compound 125] was run?
The ED50 was over 5 mg/kg.

For `C[C@H]1O[C@@H](n2cc(-c3ccccc3)c3c(Nc4ccc(I)cc4)ncnc32)[C@H](O)[C@@H]1O` [compound 128], which ED50 is on record?
The ED50 was 5 mg/kg.

How did the ED50 turn out when `C[C@H]1O[C@@H](n2cc(-c3ccccc3)c3c(Nc4ccc(NC(=O)C(F)(F)F)cc4)ncnc32)[C@H](O)[C@@H]1O` [compound 129] was run?
Its ED50 is 5 mg/kg.

Which ED50 does the source give for `C[C@H]1O[C@@H](n2cc(-c3cccc(N)c3)c3c(Nc4ccc(F)cc4)ncnc32)[C@H](O)[C@@H]1O` [compound 131] here?
Its ED50 is over 5 mg/kg.

For `C[C@H]1O[C@@H](n2cc(-c3ccc(C#N)cc3)c3c(Nc4ccc(F)cc4)ncnc32)[C@H](O)[C@@H]1O` [compound 132], which ED50 is on record?
The ED50 was over 5 mg/kg.
